By UniProt entry, the sequences of proteins in these tests, tags left out.
Polyadenylate-binding protein 1 (Homo sapiens), P11940, UniProt P11940, whole entry, looked up: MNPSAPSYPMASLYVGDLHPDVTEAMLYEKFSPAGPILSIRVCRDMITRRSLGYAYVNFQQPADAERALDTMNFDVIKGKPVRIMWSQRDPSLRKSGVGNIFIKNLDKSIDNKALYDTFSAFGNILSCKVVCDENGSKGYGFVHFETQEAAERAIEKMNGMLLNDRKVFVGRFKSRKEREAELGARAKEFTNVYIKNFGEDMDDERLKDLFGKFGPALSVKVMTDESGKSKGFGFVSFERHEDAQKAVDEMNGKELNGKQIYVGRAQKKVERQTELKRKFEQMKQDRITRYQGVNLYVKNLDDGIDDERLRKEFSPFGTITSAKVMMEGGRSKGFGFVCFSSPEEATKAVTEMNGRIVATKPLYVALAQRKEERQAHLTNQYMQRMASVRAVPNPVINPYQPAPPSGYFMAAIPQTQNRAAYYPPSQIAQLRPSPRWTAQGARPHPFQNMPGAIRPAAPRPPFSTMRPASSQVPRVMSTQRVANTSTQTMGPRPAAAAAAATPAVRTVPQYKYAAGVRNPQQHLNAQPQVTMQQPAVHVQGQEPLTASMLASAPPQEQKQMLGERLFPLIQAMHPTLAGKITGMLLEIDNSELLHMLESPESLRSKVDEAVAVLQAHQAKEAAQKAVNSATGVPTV

# Compound activity (PubChem BioAssay)
# Rows were chosen to be rich in hits. Some 1.5% of all compounds tested hit in one or more screens of this group.
# Yeast UUG start: modulators of start codon recognition fidelity in yeast; S. cerevisiae UUG-firefly luciferase reporter, luminescence/redox ratio; AID 602363; 350,000 tested, 0.13% active; activity score, % at 18.7 µM;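 active = replicate mean at a twofold rise or more, about +100% in these data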;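 also: firefly luciferase made from a UUG start codon reports start codon fidelity; reporter light over untreated wells divided by growth signal over untreated wells; some hits fall short of that in this replicate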
# DSG3 Ab inh: inhibitors of pemphigus antibody binding to DSG3, primary screen, biochemical, bead-based, flow cytometry, scFv-GFP; AID 588358, 2011; binding (percent of control), % at 10 µM; DSG3-coupled beads, scFv-anti-DSG3-GFP binding; hits give low values; 310,000 tested, 0.48% active;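 active = binding more than 3 SD below its plate's average and above zero; inconclusive = below that plate limit but binding exactly zero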;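 also: hits lower antibody fragment binding to DSG3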
# MLLE-PAM2 inh: inhibitors of PABP1 MLLE–PAM2 peptide binding, primary screen, biochemical, fluorescence polarization, FITC-PAM2, GST-MLLE | Polyadenylate-binding protein 1 (Homo sapiens), P11940 | inhibition, % at 20 µM | AID 588489, 2011 | 360,000 tested, 0.36% active; in the data active = inhibition above about 35%, passing the limit was not always enough
# PABP FP inh: PABP poly(A) RNA binding inhibitors, primary screen, biochemical, fluorescence polarization, uHTS | Polyadenylate-binding protein 1 (Homo sapiens), P11940 | calls only at 35 µM | 290,000 tested, 1% active | AID 2014, 2009;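 also: calls also rest on retests at 20 µM and on dose response follow-up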
# eIF4H FP inh: human eIF4H binding inhibitors, primary screen, translation initiation inhibitor project, biochemical, uHTS, fluorescence polarization. inhibition, % at 35 µM. 290,000 tested, 0.94% active. AID 2012, 2009. eIF4H fluorescence polarization binding assay. Eukaryotic translation initiation factor 4H (Homo sapiens), Q15056;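 also: calls also rest on retests at 20 µM and on dose response follow-up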
# Hits are given with their value; 0 = inactive; ? = inconclusive; - = no result given; + = active, no number. Unless noted, no rule for the calls is given here.
SMILES,Yeast UUG start,DSG3 Ab inh,MLLE-PAM2 inh,PABP FP inh,eIF4H FP inh
O=C1Nc2ccccc2C1=NN1CCCCCC1,0,0,0,-,-
O=C(NCc1cccc(Cl)c1)c1cnccn1,0,0,0,0,33.9
C[C@@H]1CCCCO[C@@H](CN(C)Cc2ccc3c(c2)OCO3)[C@H](C)CN([C@@H](C)CO)C(=O)c2cc(NC(=O)Nc3ccc(C(F)(F)F)cc3)ccc2O1,0,-,-,-,-
COc1ccc([N+](=O)[O-])cc1/C=N/NC(=O)CNC(=O)C(c1ccccc1)c1ccccc1,0,0,0,+,83.8
COc1ccc([N+](=O)[O-])cc1/C=N/NC(=O)CNC(=O)c1cccc(F)c1,0,0,0,0,0
C#CCN(C[C@H]1[C@H](OC(=O)NCc2ccccc2)[C@H](OC(=O)NCc2ccccc2)C[C@H]2C(=O)N(c3ccccc3)C(=O)[C@@H]12)S(=O)(=O)c1ccc(C)cc1,0,89.4,0,-,-
C#CCN(C[C@H]1[C@H](OC(=O)NC2CC2)[C@H](OC(=O)NC2CC2)C[C@H]2C(=O)N(c3ccccc3)C(=O)[C@@H]12)S(=O)(=O)c1ccc(C)cc1,0,0,0,-,-
CCn1c(SCc2c(Cl)cccc2Cl)nc2nc3c(cc2c1=O)CCCC3,0,0,0,-,-
CCn1c(SCc2ccccc2Cl)nc2nc3c(cc2c1=O)CCCC3,0,0,0,+,active
O=C(C[C@H]1CC[C@@H](NC(=O)C2CC2)[C@@H](CO)O1)NCCCN1CCOCC1,0,-,-,-,-
CNC(=S)NNC(=O)c1sccc1OCc1ccc(Cl)cc1Cl,0,0,0,0,0
S=c1nc(-c2sccc2OCc2ccc(Cl)cc2Cl)[nH][nH]1,-,0,37.4,0,0
COc1ccc(CN2C[C@H](C)[C@@H](OC)CN(C)C(=O)c3cc(NC(C)=O)ccc3OC[C@@H]2C)cc1,0,-,-,-,-
Cc1sc2ncnc(NCc3ccco3)c2c1C,-,0,0,+,66.0
Cc1sc2ncnc(SCC(=O)NC(=O)NCc3ccco3)c2c1C,0,0,0,+,82.5
Cc1sc2ncnc(NCc3cccs3)c2c1C,0,0,0,0,0
Cc1nc(SCC(=O)NCc2ccco2)c2c(C)c(C)sc2n1,-,0,0,0,0
Cc1ccc(-c2csc3ncnc(OCC(=O)NC(=O)NCc4ccco4)c23)cc1,0,0,0,0,20.6
O=C(C[C@H]1C=C[C@H](NC(=O)Nc2ccc(F)cc2)[C@H](CO)O1)NCc1ccccn1,0,-,-,-,-
C[C@H]1CN([C@@H](C)CO)C(=O)c2cccc(NC(=O)Nc3ccccc3)c2O[C@@H]1CN(C)CC1CC1,0,-,-,-,-
O=C(CCCN1CCC(O)(c2ccc(Cl)cc2)CC1)c1ccc(F)cc1,0,53.1,0,0,0
COc1ccccc1C(=O)C(=O)c1ccccc1OC,0,0,0,-,-
COc1ccccc1C(N)=S,0,0,40.0,0,0
CN(C)c1cccc(NC2=CC(=[N+]3CCOCC3)CC(C)(C)C2)c1,0,-,0,+,0
CC1=NC(=O)C(N=Nc2cccc(C(=O)O)c2)N1c1ccccc1 (configuration not stated),-,0,0,+,13.4
SMILES,Yeast UUG start,DSG3 Ab inh,MLLE-PAM2 inh,PABP FP inh,eIF4H FP inh
CC1=C(C(=O)O)N2C(=O)C(NC(=O)c3ccn(C)n3)C2SC1 (configuration not stated),0,0,48.5,0,0
CC1=C(C(=O)O)N2C(=O)C(NC(=O)c3nn(C)cc3[N+](=O)[O-])C2SC1 (configuration not stated),0,0,0,0,0
CCCNC(=O)N1[C@H](C#N)[C@H](c2ccc(-c3cccc(OC)c3)cc2)[C@@H]1CO,0,-,-,-,-
COc1ccccc1S(=O)(=O)N1CC[C@@H]2[C@H]1c1cc(-c3cccc(C#N)c3)ccc1N[C@@H]2CO,0,-,-,-,-
O=C(Cn1cnc2ccccc2c1=O)Nc1nc2ccccc2s1,-,65.2,0,0,0
CCc1ccc2nc(NC(=O)Cn3cnc4ccccc4c3=O)sc2c1,0,0,0,0,0
COc1ccc(S(=O)(=O)Nc2ccc3c(c2)C(=O)N([C@@H](C)CO)C[C@H](C)[C@@H](CN(C)C(=O)c2ccncc2)OCCCC[C@H](C)O3)cc1,0,-,-,-,-
C/C(CC(=O)Nc1cc(C)ccn1)=N\NC(=O)c1ccccc1C,0,0,0,+,0
Cn1nc(C(C)(C)C)cc1C(=O)Sc1cccc(Br)c1,0,0,44.1,0,0
Cn1nc(C(C)(C)C)cc1C(=O)O,-,0,0,0,0
C1CC2CN(c3nc4nonc4nc3N3CCSCC3)CCN2C1 (configuration not stated),-,0,51.6,0,0
C[C@@H]1CN([C@H](C)CO)C(=O)Cc2cc(NC(=O)CCCCCC(=O)Nc3ccccc3N)ccc2O[C@H]1CN(C)Cc1ccc(Oc2ccccc2)cc1,0,-,-,-,-
COc1ccc2c(COC(=O)CC3Sc4ccccc4NC3=O)cc(=O)oc2c1 (configuration not stated),-,0,0,0,0
CC(=O)Nc1ccc2c(COC(=O)CC3Sc4ccccc4NC3=O)cc(=O)oc2c1 (configuration not stated),-,0,0,+,?
Cc1ccc(S(=O)(=O)N[C@@H]2CC[C@H](CCNS(=O)(=O)Cc3ccccc3)O[C@H]2CO)cc1,0,-,-,-,-
Cc1nc(Oc2ccccc2)c2ccsc2n1,0,-,0,+,74.7
COc1ccc(Oc2ncnc3sccc23)cc1,0,0,0,0,0
CCOc1ccc(N2C(=O)CSC2=S)cc1,0,0,0,0,0
O=C1CSC(=S)N1c1ccccc1,0,0,0,-,-
CCN(CC)c1ccc(N2C(=O)CSC2=S)cc1,0,0,0,0,61.5
O=C1CSC(=S)N1/N=C/c1cccnc1,0,0,43.5,0,0
O=C1CSC(=S)N1c1cccnc1,0,0,39.8,0,0
COc1ccc(NC(=O)N(C)C[C@@H]2Oc3ccc(NC(=O)NC4CCCCC4)cc3CC(=O)N([C@@H](C)CO)C[C@H]2C)cc1,0,-,-,-,-
CC(C)C#Cc1cnc2c(c1)C(=O)N([C@H](C)CO)C[C@@H](C)[C@H](CN(C)C(=O)c1ccccn1)O2,0,-,-,-,-
O=c1[nH]c(=O)c2nc3c4ccccc4c4ccccc4c3nc2[nH]1,-,28.6,0,0,0
SMILES,Yeast UUG start,DSG3 Ab inh,MLLE-PAM2 inh,PABP FP inh,eIF4H FP inh
Oc1cc(-n2cccn2)c(O)cc1-n1cccn1,0,0,47.0,0,0
O=C(/C=C/c1cccc([N+](=O)[O-])c1)Nc1ccc(NC(=O)c2cccs2)cc1,0,0,0,+,0
O=C(NCCC1=CCCCC1)C(=O)NCc1ccncc1,-,52.3,0,0,0
O=C(NCCC1=CCCCC1)C(=O)NCCc1ccc(Cl)cc1,0,0,0,0,0
O=S(=O)(/N=C(/Sc1ccccc1)c1ccccc1)c1ccccc1,0,0,37.6,0,0
CS/C(=N\S(=O)(=O)c1ccccc1)c1ccccc1,-,0,0,0,0
